Assay results: ChEMBL document CHEMBL2176900, “Design and synthesis of a novel series of bicyclic heterocycles as potent γ-secretase modulators” (J Med Chem, 2012)

Amino acid sequences for entries named in this document (tags omitted). A change or cut given only in a name is not applied to a line headed by its entry.
UniProt Q96BI3: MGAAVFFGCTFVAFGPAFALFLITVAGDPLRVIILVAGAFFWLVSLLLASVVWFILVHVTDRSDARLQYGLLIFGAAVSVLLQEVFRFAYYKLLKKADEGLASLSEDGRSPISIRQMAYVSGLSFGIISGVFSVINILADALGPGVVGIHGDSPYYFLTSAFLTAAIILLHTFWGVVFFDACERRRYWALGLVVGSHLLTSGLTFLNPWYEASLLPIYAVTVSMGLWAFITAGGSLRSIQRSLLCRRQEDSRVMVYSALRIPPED
UniProt Q9NZ42: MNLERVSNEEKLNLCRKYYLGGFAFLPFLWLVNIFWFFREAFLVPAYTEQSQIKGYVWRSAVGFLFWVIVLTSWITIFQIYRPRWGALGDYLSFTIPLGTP
UniProt Q8WW43: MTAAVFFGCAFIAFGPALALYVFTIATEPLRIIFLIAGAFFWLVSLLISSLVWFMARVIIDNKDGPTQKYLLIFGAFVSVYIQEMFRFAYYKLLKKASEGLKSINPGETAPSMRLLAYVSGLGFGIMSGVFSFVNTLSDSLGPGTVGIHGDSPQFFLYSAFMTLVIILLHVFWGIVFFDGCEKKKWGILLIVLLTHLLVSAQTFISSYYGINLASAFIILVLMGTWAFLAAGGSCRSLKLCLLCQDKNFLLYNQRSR
UniProt Q92542: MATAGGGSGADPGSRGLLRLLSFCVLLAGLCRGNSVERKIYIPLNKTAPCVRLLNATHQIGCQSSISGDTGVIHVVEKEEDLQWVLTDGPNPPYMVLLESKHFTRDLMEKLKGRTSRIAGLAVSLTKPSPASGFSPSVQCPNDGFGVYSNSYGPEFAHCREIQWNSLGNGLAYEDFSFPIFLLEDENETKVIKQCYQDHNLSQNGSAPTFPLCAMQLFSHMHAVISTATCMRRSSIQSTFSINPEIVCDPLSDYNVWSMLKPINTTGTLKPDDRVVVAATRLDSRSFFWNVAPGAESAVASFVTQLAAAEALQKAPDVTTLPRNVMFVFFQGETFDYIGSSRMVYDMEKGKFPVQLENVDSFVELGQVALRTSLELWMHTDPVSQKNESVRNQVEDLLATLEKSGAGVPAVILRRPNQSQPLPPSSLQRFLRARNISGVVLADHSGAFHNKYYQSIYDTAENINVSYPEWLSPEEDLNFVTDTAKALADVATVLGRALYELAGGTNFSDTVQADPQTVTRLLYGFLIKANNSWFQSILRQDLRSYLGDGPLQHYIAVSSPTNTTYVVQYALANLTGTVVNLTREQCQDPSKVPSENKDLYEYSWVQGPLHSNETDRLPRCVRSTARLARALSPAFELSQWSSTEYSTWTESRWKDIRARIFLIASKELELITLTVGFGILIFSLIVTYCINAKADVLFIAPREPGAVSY

Experiments:
[1] = biological target: Gamma-secretase (Homo sapiens) (UniProt Q96BI3+Q9NZ42+Q8WW43+P49768+Q92542+P49810); experiment: Inhibition of gamma-secretase in human SK-N-BE(2) cells expressing wild type APP 695 assessed as reduction in total amyloid beta level up to 10 uM after overnight incubation by sandwich immunoassay; format: cell-based
Outline: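 SK-N-BE(2) cells with wild-type APP695 were plated at 10⁴ cells/well in supplemented Ultraculture with test compound at several concentrations. They were incubated overnight at 37 °C, 5% CO₂. Supernatant Aβtotal was measured by AlphaLisa sandwich immunoassay (JRF/AβN/25 capture, biotinylated 4G8). Data are % of the maximum Aβtotal seen without compound.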

[2] = tested on: Gamma-secretase (Homo sapiens); experiment: Inhibition of gamma-secretase in human SK-N-BE(2) cells expressing wild type APP 695 assessed as reduction in total amyloid beta level up to 10 uM after overnight incubation by sandwich immunoassay

Row | inhibition [1] | SMILES | inhibition [2]
1 | inactive | COc1cc(/C=C2\CCCN([C@@H](C)c3ccc(F)cc3)C2=O)ccc1-n1cnc(C)c1 | –
2 | – | COc1nc(Nc2cccc3c2nc(-c2ccc(F)cc2)n3C)ccc1-n1cnc(C)c1 | inactive

Activity calls are given as the source filed them. No cut-off for these calls is given here.
